# Yeast mating assay B: variants of the scFv Ab-14

Values reported by Li et al. 2023, doi:10.1038/s41467-023-39022-2 (FLAb copy).

Target peptide (SARS-CoV-2 spike, HR2 region): PDVDLGDISGINAS

The variants keep the heavy chain, the linker and the frameworks of Ab-14 (scFv order VH, the linker GGGGSGGGGSGGGGS, VL).
VH: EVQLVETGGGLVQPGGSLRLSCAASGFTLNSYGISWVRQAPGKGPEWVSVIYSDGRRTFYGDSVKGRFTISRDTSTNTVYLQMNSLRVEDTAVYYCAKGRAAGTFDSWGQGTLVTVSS
VL: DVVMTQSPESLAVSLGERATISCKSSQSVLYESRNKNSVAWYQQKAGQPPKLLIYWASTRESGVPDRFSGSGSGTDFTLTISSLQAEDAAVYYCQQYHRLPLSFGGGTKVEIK

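The parent was found by panning a naive human phage display library on the peptide. This is the validation round: designs drawn from the data on random variants, tested in the same kind of assay. Several design methods are mixed in this list. Affinity was read by AlphaSeq, a pooled yeast mating assay with surface-displayed partners. After mating in shaken culture at 30 °C for 16 h, diploids were selected and their barcode pairs sequenced. A regression on co-assayed BCL2-family reference pairs converts the normalised counts of each replicate to an apparent Kd. Each pool was mated in six replicate cultures.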

Positions count from residue 1 of the parent VL; R34Y puts Y in place of R.
Variants here have at most six changes.
The Kd shown is the geometric mean over detected replicates; a lower Kd is a better binder.
An entry "no signal" has no value in the source: the pair was not observed among the diploids in any replicate. This suggests poor binding but is not conclusive.

For R34Y+Q96M+Y97T, the assay gave 940 nM (1 of 6 replicates). With K24H+S25C+Q27P+E32R+W56N+H98P the result was no signal (0 of 6 replicates). Variant S25L+S26Q+V29M+W56D gave 620 pM (6 of 6 replicates). Variant K24Y+S25L+W56N showed 670 pM (6 of 6 replicates). Variant S25L+V29F+S38N+W56E gave 440 pM (6 of 6 replicates). With K24R+S26K+K36S+W56G the result was 1.2 nM (6 of 6 replicates).

Variant L30R+Y31N showed 11 nM (6 of 6 replicates). Variant Y31Q+W56D gave 4.5 nM (12 of 12 replicates). Variant S25V+V29F+L30D+W56D showed 750 pM (6 of 6 replicates). Variant S25L+K36Y showed 3.1 nM (6 of 6 replicates). For S25L+V29N+S38N+W56N+E61M, the assay gave 300 pM (6 of 6 replicates). With S25M+W56E+S62Q the result was 700 pM (6 of 6 replicates).

Variant S25L+W56Q+A57G showed 730 pM (6 of 6 replicates). For S25L+S26P+V29T+W56H, the assay gave 830 pM (6 of 6 replicates). For E32D+R99E, the assay gave 180 nM (5 of 6 replicates). Variant Y31Q+L102P showed no signal (0 of 6 replicates). With S25Q+S33N+W56D the result was 450 pM (6 of 6 replicates). For S25L+L30D+Y31S+S58I+S62I, the assay gave 270 nM (3 of 6 replicates).

With K24H+S25L+Y31M+W56D the result was 640 pM (6 of 6 replicates). Variant Y31F+S33E+W56D gave 2.0 nM (6 of 6 replicates). Variant S25V+R60W showed no signal (0 of 6 replicates). Variant S25L+V29C+W56N showed 1.6 nM (6 of 6 replicates). With K36E+H98V the result was no signal (0 of 6 replicates). With K24I+S25M+Y31M+W56D the result was 890 pM (6 of 6 replicates).

Variant S26E+S28G+V29F+S33N+W56S+T59Q gave 1.3 nM (6 of 6 replicates). For S25L+Q27W+V29D+W56E, the assay gave 560 pM (6 of 6 replicates). Variant S25L+V29W+W56E+T59Q+Q96D gave 570 pM (6 of 6 replicates). Variant Q27I+V29G+W56E showed 770 pM (6 of 6 replicates). For Y31V+N35Y+S103D, the assay gave 92 nM (4 of 6 replicates). With Y31N+R34N+T59C the result was 42 nM (6 of 6 replicates).

With S25F+Q27A+N35Y+S62E the result was 11 nM (6 of 6 replicates). Variant S25I+V29Q+Y31G+K36V+W56N+E61L showed 810 pM (6 of 6 replicates). Variant S26L+L30D+W56H+S62Q+R99F showed 5.8 nM (6 of 6 replicates). For S25L+V29E+N35V+W56N, the assay gave 1.6 nM (6 of 6 replicates). Variant S28T+Y31W+R34T+S38G+Q95F showed no signal (0 of 6 replicates). Variant S25L+S26E+V29D+S38N+W56N showed 3.3 nM (6 of 6 replicates).

Variant R34G+N35Q+W56A+S62Q+P101L gave 3.3 nM (6 of 6 replicates). For R34F+W56G, the assay gave 3.0 nM (6 of 6 replicates). Variant S25L+W56H+E61C gave 1.6 nM (6 of 6 replicates). Variant E61R+S103I showed no signal (0 of 6 replicates). For S26A+Y31M, the assay gave 370 nM (4 of 6 replicates). Variant S25Y+S26Q+Y31T+W56N+Q96D+R99Q showed 6.8 nM (6 of 6 replicates).

With V29M+S33G+R34K+W56E+S62Q the result was 660 pM (6 of 6 replicates).

A selection of 5 entries from above:

With Y31F+S33E+W56D the result was 2.0 nM (6 of 6 replicates).
With E32D+R99E the result was 180 nM (5 of 6 replicates).
With S25V+V29F+L30D+W56D the result was 750 pM (6 of 6 replicates).
With K24R+S26K+K36S+W56G the result was 1.2 nM (6 of 6 replicates).
With S26A+Y31M the result was 370 nM (4 of 6 replicates).

The range of this assay differs from that of the first round, and the authors advise against merging the two.
In the paper, a design with two or fewer of six values counts as a poor binder.
Three control strains display no target. For all light chain designs, 4% of the pairings with them gave a signal, with a median of 430 nM and one signal in twenty below 38 nM, so weak values seen in few replicates may be background.
Of ten entries with the parent sequence, four were seen in most replicates (averages 2.2 nM to 240 nM), three in one and three in none, so single entries are noisy.
Where one sequence has several entries in the source, the replicates are pooled.